Values of other authors in PMC11220827 (Frontiers in Pharmacology, 2024).

Experiments:
[1] = test system: Estrogen pathway; set-up: method as in ToxCast; details: ref ToxCast; cited from earlier work
[2] = test system: Androgen pathway; set-up: method as in ToxCast; details: ref ToxCast; cited from earlier work
Further: key: Pos = positive result; Neg = negative result; Inc = uncertain/inconclusive result.

O=c1c(-c2ccc(O)cc2)coc2cc(O)cc(O)c12 [Genistein, 5,7-DIHYDROXY-3-(4-HYDROXYPHENYL)-4-BENZOPYRONE]
Estrogen pathway: Receptor binding, Call [1]: Pos | Androgen pathway: Receptor binding, Call [2]: Neg
